From PubChem BioAssay AID602244 (Sanford-Burnham Center for Chemical Genomics, 2012)
Only a part is listed here, and it is no random draw. Calls of active or inactive are those of the source. Cut-off read from the data, not from the text of the source: active = inhibition above about 34% (passing the limit was not always enough); inactive = the rest.

Sequences of proteins named here, by UniProt entry; tags and fusion partners are left off.
UniProt O00574, whole entry: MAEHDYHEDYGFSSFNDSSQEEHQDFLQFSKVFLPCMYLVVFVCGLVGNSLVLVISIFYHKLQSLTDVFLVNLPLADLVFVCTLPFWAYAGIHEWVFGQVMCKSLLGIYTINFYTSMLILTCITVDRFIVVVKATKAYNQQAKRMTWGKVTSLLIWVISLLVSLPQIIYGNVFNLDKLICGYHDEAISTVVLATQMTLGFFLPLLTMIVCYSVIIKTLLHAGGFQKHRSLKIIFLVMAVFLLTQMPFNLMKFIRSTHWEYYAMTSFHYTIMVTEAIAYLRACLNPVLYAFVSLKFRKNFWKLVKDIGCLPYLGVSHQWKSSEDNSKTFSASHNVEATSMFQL

The compounds below were run against C-X-C chemokine receptor type 6 (Homo sapiens) (UniProt O00574) (assay: blockade of CXCL16-induced CXCR6 beta-arrestin recruitment – cell-based, luminescence, CHO-K1 PathHunter, 1536-well, primary screen (AID 602244;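 note: antagonist mode with CXCL16 agonist at 10 nM final; 0% = 10 nM CXCL16 with DMSO and 100% = unstimulated wells without agonist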)). Conditions: at 20 µM, active compounds read high.

Structure (SMILES) | inhibition
Cc1cccc(NC2(C#N)CCN(Cc3ccccc3)CC2)c1 | inactive: -2.6%
CSc1ccccc1C(=O)NCC1(N2CCCCC2)CCCCC1 | inactive: 11.8%
CCC(c1nnnn1C1CCCC1)N1CCC(n2c(=O)[nH]c3ccccc32)CC1 (stereo not drawn) | inactive: 4.8%
COc1ccc(C(=O)NCC2(N3CCCCC3)CCCCC2)c(OC)c1OC | inactive: 3.3%
CC(C)(C)OC(=O)N1CCC(N(C(=O)c2ccccc2)c2ccc(F)cc2)CC1 | inactive: 8%
COc1ccc(C(=O)NCC2(N3CCCCC3)CCCCC2)cc1 | inactive: 6.2%
CCCCn1nnnc1C(c1cccs1)N1CCC(n2c(=O)[nH]c3ccccc32)CC1 (stereo not drawn) | inactive: 16.7%
CCCCn1nnnc1C(CC)N1CCC(n2c(=O)[nH]c3ccccc32)CC1 (stereo not drawn) | inactive: -1.6%
O=C(NCC1(N2CCCCC2)CCCCC1)c1cccs1 | inactive: 7.5%
O=C(NCC1(N2CCCCC2)CCCCC1)c1ccc(=O)[nH]c1 | inactive: -4.4%
COc1ccc(Cl)cc1C(=O)NCC1(N2CCOCC2)CCCCC1 | inactive: -3.1%
O=C(OC1CN2CCC1CC2)C1c2ccccc2Oc2ccccc21 (stereo not drawn) | inactive: 17.3%
O=c1[nH]c2ccccc2n1C1CCN(C(c2cc3ccccc3o2)c2nnnn2C2CCCCC2)CC1 (stereo not drawn) | inactive: -6.7%
N#CC1(Nc2ccccc2)CCN(Cc2ccccc2)CC1 | inactive: 13%
O=C(NCC1(N2CCCCC2)CCCCC1)c1ccc(Cl)s1 | inactive: 7.5%
CCCCn1nnnc1C(c1ccc(OC)cc1)N1CCC(n2c(=O)[nH]c3ccccc32)CC1 (stereo not drawn) | inactive: 1%
CCOC(=O)N1CCC(Nc2ccc(OC)cc2)CC1 | inactive: 3.8%
Cc1cc(C)cc(N(C(=O)c2ccccc2)C2CCN(C(=O)OC(C)(C)C)CC2)c1 | inactive: 0.9%
O=c1[nH]c2ccccc2n1C1CCN(C(c2ccccc2OC(F)(F)F)c2nnnn2C2CCCCC2)CC1 (stereo not drawn) | inactive: 6.1%
O=C(NCC1(N2CCCCC2)CCCCC1)c1ccc(Cl)nc1 | inactive: 1.7%
O=C(NCC1(N2CCOCC2)CCCCC1)c1cc2ccccc2o1 | inactive: -31.3%
COc1ccc(NC2CCN(CCc3ccccc3)CC2)c(OC)c1 | inactive: -1.6%

Structure (SMILES) | inhibition
CCOC(=O)N1CCC(Nc2ccc(F)cc2)CC1 | inactive: -3.8%
O=C(NCC1(N2CCCCC2)CCCCC1)c1ccc(F)cc1 | inactive: 2.4%
O=P1(N(CCCl)CCCl)SCCCS1 | inactive: -0.2%
CCCCn1nnnc1C(c1cc2ccccc2o1)N1CCC(n2c(=O)[nH]c3ccccc32)CC1 (stereo not drawn) | inactive: 7.9%
CCCCOc1ccc(C(=O)NCC2(N3CCOCC3)CCCCC2)cc1 | inactive: 12.2%
O=C1CCN(Cc2ccccc2)CC1 | inactive: 9.8%
CC(C)(C)n1nnnc1C(c1ccccc1)N1CCC(n2c(=O)[nH]c3ccccc32)CC1 (stereo not drawn) | inactive: 1.6%
CCOc1ccc(C)cc1CN(CCCl)CCCl | inactive: 7%
COc1cc(C(=O)NCC2(N(C)C)CCCCC2)ccc1OC(F)F | inactive: -5.1%
CCOC(=O)N1CCC(Nc2cccc(C)c2)CC1 | inactive: 8.3%
O=c1[nH]c2ccccc2n1C1CCN(C(c2cccc3ccccc23)c2nnnn2C2CCCC2)CC1 (stereo not drawn) | inactive: 10.7%
O=c1[nH]c2ccccc2n1C1CCN(C(c2ccccc2)c2nnnn2C2CCCCC2)CC1 (stereo not drawn) | inactive: 4%
N#CC1(Nc2ccccc2)CCN(CCc2ccccc2)CC1 | inactive: 3.2%
O=c1[nH]c2ccccc2n1C1CCN(C(c2ccccc2OC(F)(F)F)c2nnnn2C2CCCC2)CC1 (stereo not drawn) | inactive: 8.3%
CCN1CCC(Nc2ccc(Cl)cc2)CC1 | inactive: 3.4%
CSc1ccc(C(=O)NCC2(N3CCOCC3)CCCCC2)cc1 | inactive: -0.3%
O=C(NCC1(N2CCCCC2)CCCCC1)c1cccc([N+](=O)[O-])c1 | inactive: -2.4%
O=C(NCC1(N2CCCCC2)CCCCC1)c1ccc(OC(F)F)cc1 | inactive: 11%
CC(C)(C)n1nnnc1C(c1ccccc1OC(F)(F)F)N1CCC(n2c(=O)[nH]c3ccccc32)CC1 (stereo not drawn) | inactive: 11.7%
COc1cc(C(=O)NCC2(N3CCCCC3)CCCCC2)ccc1OC(F)F | inactive: 11%
O=C(NCC1(N2CCOCC2)CCCCC1)c1cc(=O)[nH]c2ccccc12 | inactive: -3.5%
CCCCn1nnnc1C(c1cccc2ccccc12)N1CCC(n2c(=O)[nH]c3ccccc32)CC1 (stereo not drawn) | inactive: 6.8%

Structure (SMILES) | inhibition
CN1CCN(CCOC(=O)C(O)(c2ccccc2)c2ccccc2)CC1 | inactive: -3.2%
COc1ccc(NC2CCN(C(=O)OC(C)(C)C)CC2)cc1 | inactive: -3.6%
CC(C)c1ccc(C(=O)NCC2(N3CCOCC3)CCCCC2)cc1 | inactive: 0.6%
O=C(NCC1(N2CCCCC2)CCCCC1)c1cccc(C(F)(F)F)c1 | inactive: 3.9%
CCC(c1nnnn1C(C)(C)C)N1CCC(n2c(=O)[nH]c3ccccc32)CC1 (stereo not drawn) | inactive: -1.8%
O=C(NCC1(N2CCOCC2)CCCCC1)c1cc(F)c(F)cc1Cl | inactive: 7.4%
COc1cc(OC)c(C(=O)NCC2(N(C)C)CCCCC2)cc1OC | inactive: -4.8%
CCCCn1nnnc1C(c1ccnc2ccccc12)N1CCC(n2c(=O)[nH]c3ccccc32)CC1 (stereo not drawn) | inactive: -2%
CC(C)c1ccc(NC2CCN(C(=O)OC(C)(C)C)CC2)cc1 | inactive: -3.2%
CCCCn1nnnc1C(c1ccccc1OC(F)(F)F)N1CCC(n2c(=O)[nH]c3ccccc32)CC1 (stereo not drawn) | inactive: 12.3%
CN(C)c1cccc(C(=O)NCC2(N3CCCCC3)CCCCC2)c1 | inactive: 9.7%
COc1ccc(CN(CCCl)CCCl)cc1Cl | inactive: -1.2%
COc1ccc(C(c2nnnn2C2CCCC2)N2CCC(n3c(=O)[nH]c4ccccc43)CC2)cc1 (stereo not drawn) | inactive: 1.5%
CCCOc1ccc(C(=O)NCC2(N(C)C)CCCCC2)cc1OC | inactive: -6.7%
Cc1ccc(C(=O)NCC2(N(C)C)CCCCC2)o1 | inactive: 3.6%
O=C(NCC1(N2CCCCC2)CCCCC1)c1cncc(Br)c1 | inactive: 3.3%
CN1CCC(Nc2cccc(F)c2)CC1 | inactive: -5.6%
O=c1[nH]c2ccccc2n1C1CCN(C(c2cccs2)c2nnnn2C2CCCCC2)CC1 (stereo not drawn) | inactive: 1.1%
O=c1[nH]c2ccccc2n1C1CCN(C(c2ccnc3ccccc23)c2nnnn2C2CCCC2)CC1 (stereo not drawn) | inactive: -1.2%
COc1ccc(C(=O)NCC2(N3CCOCC3)CCCCC2)cc1OC | inactive: 6.2%
COc1cc(C(=O)NCC2(N3CCOCC3)CCCCC2)cc(OC)c1C | inactive: 2.6%
CCCCn1nnnc1C(c1ccccc1)N1CCC(n2c(=O)[nH]c3ccccc32)CC1 (stereo not drawn) | inactive: -2.3%

Structure (SMILES) | inhibition
O=C(NCC1(N2CCOCC2)CCCCC1)c1cc(Br)ccc1Cl | inactive: 1%
O=c1[nH]c2ccccc2n1C1CCN(C(c2cccs2)c2nnnn2C2CCCC2)CC1 (stereo not drawn) | inactive: 1.9%
O=C(OC1CN2CCC1CC2)C1c2ccccc2C=Cc2ccccc21 (stereo not drawn) | inactive: 7.9%
CCCCn1nnnc1C(c1cccc(OC)c1OC)N1CCC(n2c(=O)[nH]c3ccccc32)CC1 (stereo not drawn) | inactive: 3.8%
COc1cccc(C(c2nnnn2C(C)(C)C)N2CCC(n3c(=O)[nH]c4ccccc43)CC2)c1OC (stereo not drawn) | inactive: -3.1%
CCOC(=O)N1CCC(Nc2ccc(C)cc2)CC1 | inactive: -3.3%
N/C(=N\O)c1c(N)no[n+]1[O-] | inactive: -15.2%
N#Cc1ccc(C(=O)NCC2(N3CCCCC3)CCCCC2)cc1 | inactive: 11.7%
CC(C)(C)OC(=O)N1CCC(N(C(=O)c2ccccc2)c2ccc(Cl)cc2)CC1 | inactive: 15.3%
CC(C)(C)n1nnnc1C(c1cccc2ccccc12)N1CCC(n2c(=O)[nH]c3ccccc32)CC1 (stereo not drawn) | inactive: 4%
CN(C)C1(CNC(=O)c2cccc(C#N)c2)CCCCC1 | inactive: 1.2%
CCCN1CCC(Nc2cc(OC)cc(OC)c2)CC1 | inactive: -17.8%
O=c1[nH]c2ccccc2n1C1CCN(C(c2ccccc2)c2nnnn2C2CCCC2)CC1 (stereo not drawn) | inactive: -1.5%
Cc1cc(N(CCCl)CCCl)ccc1C=O | inactive: -13%
c1ccc(CN2CCC(Nc3ccccc3)CC2)cc1 | inactive: 1.9%
Fc1ccccc1NC1CCN(Cc2ccccc2)CC1 | inactive: 4%
Cc1ccc(C(=O)NCC2(N3CCCCC3)CCCCC2)o1 | inactive: -2.5%
Cc1ccc(NC2(C#N)CCN(Cc3ccccc3)CC2)cc1 | inactive: -4.1%
CCC(c1nnnn1C1CCCCC1)N1CCC(n2c(=O)[nH]c3ccccc32)CC1 (stereo not drawn) | inactive: 5.3%
CC(=O)N(c1ccccc1)C1CCNCC1 | inactive: 1.5%
COc1cccc(C(c2nnnn2C2CCCCC2)N2CCC(n3c(=O)[nH]c4ccccc43)CC2)c1OC (stereo not drawn) | inactive: 9.2%
O=c1[nH]c2ccccc2n1C1CCN(C(c2ccnc3ccccc23)c2nnnn2C2CCCCC2)CC1 (stereo not drawn) | inactive: 9.8%

Structure (SMILES) | inhibition
COc1cc(OC)cc(C(=O)NCC2(N3CCCCC3)CCCCC2)c1 | inactive: 11.4%
Cn1c(=O)[nH]cc(N(CCCl)CCCl)c1=O | inactive: -0.2%
CN(C)c1ccc(C(=O)NCC2(N3CCCCC3)CCCCC2)cc1 | inactive: 1.3%
O=C(NCC1(N2CCCCC2)CCCCC1)c1ccco1 | inactive: 0.2%
CC(C)(C)n1nnnc1C(c1ccnc2ccccc12)N1CCC(n2c(=O)[nH]c3ccccc32)CC1 (stereo not drawn) | inactive: 1.5%
COc1ccc(C(c2nnnn2C2CCCCC2)N2CCC(n3c(=O)[nH]c4ccccc43)CC2)cc1 (stereo not drawn) | inactive: -5%
CCN1CCC(Nc2cccc(F)c2)CC1 | inactive: 3.3%
Cc1ccccc1NC1(C#N)CCN(Cc2ccccc2)CC1 | inactive: -5.5%
O=C(O)C1(Nc2ccccc2)CCN(Cc2ccccc2)CC1 | inactive: 4.1%
NN(c1ccccc1)C1CCN(CCc2ccccc2)CC1 | inactive: -2.8%
CC(C)(C)OC(=O)N1CCC(Nc2ccccc2)CC1 | inactive: 5.6%
CCCOc1ccc(C(=O)NCC2(N(C)C)CCCCC2)cc1 | inactive: 2.9%
O=c1[nH]c2ccccc2n1C1CCN(C(c2cc3ccccc3o2)c2nnnn2C2CCCC2)CC1 (stereo not drawn) | inactive: 0%
CN1CCC(Nc2ccc(F)c(Cl)c2)CC1 | inactive: 0.1%
CCOc1ncccc1C(=O)NCC1(N2CCOCC2)CCCCC1 | inactive: 1.8%
CN1CCC(Nc2ccc(Cl)cc2)CC1 | inactive: 0.5%
COc1cccc(C(c2nnnn2C2CCCC2)N2CCC(n3c(=O)[nH]c4ccccc43)CC2)c1OC (stereo not drawn) | inactive: 5.7%
COc1cc(OC)cc(C(=O)NCC2(N3CCOCC3)CCCCC2)c1 | inactive: 2.9%
COc1cccc(C(=O)N(c2cc(C)cc(C)c2)C2CCN(C(=O)OC(C)(C)C)CC2)c1 | inactive: 9.5%
CCC(CO)(C(=O)OC1CN2CCC1CC2)c1ccccc1 (stereo not drawn) | inactive: -3.9%
